According to PubChem BioAssay AID492956 (The Scripps Research Institute Molecular Screening Center, 2010):
Only a part is listed here, and it is no random draw. Some salts and complexes are drawn in separate pieces, as the source files them; their charges need not balance. Calls of active or inactive are those of the source.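 The calls were made as follows: active = inhibition above the mean over all tested compounds plus 3 SD (cut at about 30% in these data); inactive = the rest.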

molecular target: Platelet-activating factor acetylhydrolase 2, cytoplasmic (Homo sapiens) (UniProt Q99487); assay: PAFAH2 enzyme inhibitors, primary screen, biochemical, fluorescence polarization, human (AID 492956); conditions: recombinant PAFAH2, FP-rhodamine activity probe, at 3.39 µM, stronger effect = higher value;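 also: inhibitors block probe labeling of enzyme so polarization drops; 0% = enzyme with DMSO and 100% = wells lacking PAFAH2 protein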

Compound | inhibition
CCN(CC)CCCOC(=O)C(O)(c1ccccc1)c1ccccc1 | inactive: 5.19%
O=[N+]([O-])c1ccc2c(c1)C=Nc1ccccc1O2 | inactive: 0.79%
Cc1cccc(C)c1OP(C)(N)=O (stereo not given) | inactive: -0.3%
CC(C)(C)c1ccc(OP(C)(=O)Nc2ccc(SC(F)(F)F)cc2)cc1 (stereo not given) | inactive: -14.8%
O=[N+]([O-])c1cc([N+](=O)[O-])c(Nc2cccnc2)c([N+](=O)[O-])c1 | inactive: -3.5%
Cc1cc(C)cc(OP(C)(N)=O)c1 (stereo not given) | inactive: -5.09%
COc1ccc(OP(C)(=O)Nc2cccc(F)c2)cc1 (stereo not given) | inactive: -3.59%
COc1ccccc1OP(C)(=O)Nc1cc(Cl)ccc1C (stereo not given) | inactive: 0.14%
Cc1ccc(NP(C)(=O)Oc2ccccc2)c(C)c1 (stereo not given) | inactive: -2.13%
COc1ccccc1OP(C)(=O)Nc1ccc(C)cc1 (stereo not given) | inactive: 2.5%
CCOC(=O)c1ccc(NP(C)(=O)Oc2ccccc2)cc1 (stereo not given) | inactive: -3.71%
CP(=O)(Nc1ccccc1Br)Oc1ccccc1 (stereo not given) | inactive: -2.13%
COc1ccccc1OP(C)(=O)Nc1ccccc1 (stereo not given) | inactive: 3.76%
CP(=S)(Nn1cnnc1)Oc1ccccc1 (stereo not given) | inactive: -4.06%
Cc1cc(C)cc(OP(C)(=O)Nc2ccc(SC(F)(F)F)cc2)c1 (stereo not given) | inactive: 4.84%
CCc1ccc(OP(C)(=O)N2CCN(c3ccc([N+](=O)[O-])cc3)CC2)cc1 (stereo not given) | inactive: -0.1%
CP(=O)(NC(=O)Nc1ccccc1)Oc1ccccc1 (stereo not given) | inactive: -1.67%
CP(=O)(Oc1ccccc1)OC(c1ccccc1)C(F)(F)F (stereo not given) | inactive: 18.8%
Cc1cccc(C)c1OP(C)(=O)Nc1ccc(SC(F)(F)F)cc1 (stereo not given) | inactive: 4.01%
CP(=O)(Nc1ccccn1)Oc1ccc(Cl)cc1 (stereo not given) | inactive: 3.07%
CCOC(=O)c1ccc(NP(C)(=O)Oc2ccc(OC)cc2)cc1 (stereo not given) | inactive: 2.86%
CCOP(C)(=S)SCC(=O)NC(C)C(=O)O (stereo not given) | inactive: -0.23%
O=[N+]([O-])c1cc([N+](=O)[O-])c(-n2nnc3ccccc32)c([N+](=O)[O-])c1 | inactive: -12.7%

Compound | inhibition
Cc1nc2ccc3ccccc3c2s1.O=[N+]([O-])c1cc([N+](=O)[O-])c(O)c([N+](=O)[O-])c1 | inactive: -8.77%
O=[N+]([O-])c1cc([N+](=O)[O-])c(-c2cnn(-c3ccccc3)c2)c([N+](=O)[O-])c1 | inactive: -5.04%
CCOC(=O)C(CC)C1=NC(C)(C)Cc2ccccc21.O=[N+]([O-])c1cc([N+](=O)[O-])c(O)c([N+](=O)[O-])c1 (stereo not given) | inactive: -1.23%
O=[N+]([O-])c1cc([N+](=O)[O-])c(Nc2nnnn2CCO)c([N+](=O)[O-])c1 | inactive: -6%
CC1=C2N=C(C=C3N=C(C(C)=C4[N-][C@@](C)([C@@H]5N=C1[C@](C)(CCC(=O)NC[C@@H](C)OP(=O)([O-])O[C@H]1[C@@H](O)[C@@H](n6cnc7cc(C)c(C)cc76)O[C@@H]1CO)[C@H]5CC(N)=O)[C@@](C)(CC(N)=O)[C@@H]4CCC(N)=O)[C@@](C)(CC(N)=O)[C@@H]3CCC(N)=O)C(C)(C)[C@@H]2CCC(N)=O.[C-]#N.[Co+3] | inactive: 6.73%
CP(=O)(Nc1ccc(SC(F)(F)F)cc1)Oc1ccccc1 (stereo not given) | inactive: -0.82%
CCCOc1ccc(NP(C)(=O)Oc2ccc(Cl)cc2)cc1 (stereo not given) | inactive: 2.81%
CN1CCCCC1COC(=O)C1(O)c2ccccc2CCc2ccccc21 (stereo not given) | inactive: 1.89%
COc1ccccc1OP(C)(=O)Nc1c(C)cccc1C (stereo not given) | inactive: 3.08%
O=C(O)c1cccc(Nc2c([N+](=O)[O-])cc([N+](=O)[O-])cc2[N+](=O)[O-])c1 | inactive: -13.7%
CC1=NCCc2c1[nH]c1ccccc21.O=[N+]([O-])c1cc([N+](=O)[O-])c(O)c([N+](=O)[O-])c1 | inactive: -3.02%
CCOC(=O)c1ccc(NP(C)(=O)Oc2cc(C)cc(C)c2)cc1 (stereo not given) | inactive: -0.37%
Cc1cc(C)cc(OP(C)(=O)Nc2ccc(C)cc2C)c1 (stereo not given) | inactive: 12.2%
COc1ccccc1OP(C)(=O)Nc1cccc(Br)c1 (stereo not given) | inactive: 0.58%
Cc1ccc(C)c(NP(C)(=O)Oc2ccccc2)c1 (stereo not given) | inactive: 0.07%
CP(=O)(Nc1cccc(Br)c1)Oc1ccccc1 (stereo not given) | inactive: -1.9%
Cc1cc(C)cc(OP(C)(=O)Nc2ccccn2)c1 (stereo not given) | inactive: 3.19%
CP(=O)(Nc1ccccc1F)Oc1ccccc1 (stereo not given) | inactive: -9.09%
CC(C)c1ccc(OP(C)(=O)Nc2ccc(SC(F)(F)F)cc2)cc1 (stereo not given) | inactive: 5.1%
COc1ccc2c(c1O)-c1c(O)c(OC)cc3c1[C@H](C2)[N+](C)(C)CC3.O=[N+]([O-])c1cc([N+](=O)[O-])c([O-])c([N+](=O)[O-])c1[O-] | inactive: 1.69%
O=C(OC1CN2CCC1CC2)c1ccc([N+](=O)[O-])cc1 (stereo not given) | inactive: -1.56%
O=C(OCCN1CCN(CCOCc2ccccc2)CC1)C(O)(c1ccccc1)c1ccccc1 | inactive: 0.79%
